System: Oxidoreduktase aus Metschnikowia zobellii
Test: Substrate spectrum (relative enzyme activity, standard assay of Example 5.1)
Format: biochemical
Settings: activity with 2-Oxo-4-phenyl-buttersäureethylester set to 100%; NADPH; 25 °C

CCOC(=O)C(=O)CBr
Relative Aktivität %: 28%

Reference: patent publication EP1685248B1, “OXIDOREDUCTASE FROM METSCHNIKOWIA ZOBELLII” (IEP GmbH, priority 2003, dated 2005)
